Measurements as given in paper PMC5636616, “Studies on the Interaction of the Histone Demethylase KDM5B with Tricarboxylic Acid Cycle Intermediates” (Journal of Molecular Biology, 2017).

Biological target: T1, KDM5B (Homo sapiens, UniProt Q9UGL1)
T1 construct: purified recombinant KDM5B (produced in Sf9 insect cells, M1-R822); made in house; host or cells: Sf9 insect cells
T1 sequence (Q9UGL1 1-822): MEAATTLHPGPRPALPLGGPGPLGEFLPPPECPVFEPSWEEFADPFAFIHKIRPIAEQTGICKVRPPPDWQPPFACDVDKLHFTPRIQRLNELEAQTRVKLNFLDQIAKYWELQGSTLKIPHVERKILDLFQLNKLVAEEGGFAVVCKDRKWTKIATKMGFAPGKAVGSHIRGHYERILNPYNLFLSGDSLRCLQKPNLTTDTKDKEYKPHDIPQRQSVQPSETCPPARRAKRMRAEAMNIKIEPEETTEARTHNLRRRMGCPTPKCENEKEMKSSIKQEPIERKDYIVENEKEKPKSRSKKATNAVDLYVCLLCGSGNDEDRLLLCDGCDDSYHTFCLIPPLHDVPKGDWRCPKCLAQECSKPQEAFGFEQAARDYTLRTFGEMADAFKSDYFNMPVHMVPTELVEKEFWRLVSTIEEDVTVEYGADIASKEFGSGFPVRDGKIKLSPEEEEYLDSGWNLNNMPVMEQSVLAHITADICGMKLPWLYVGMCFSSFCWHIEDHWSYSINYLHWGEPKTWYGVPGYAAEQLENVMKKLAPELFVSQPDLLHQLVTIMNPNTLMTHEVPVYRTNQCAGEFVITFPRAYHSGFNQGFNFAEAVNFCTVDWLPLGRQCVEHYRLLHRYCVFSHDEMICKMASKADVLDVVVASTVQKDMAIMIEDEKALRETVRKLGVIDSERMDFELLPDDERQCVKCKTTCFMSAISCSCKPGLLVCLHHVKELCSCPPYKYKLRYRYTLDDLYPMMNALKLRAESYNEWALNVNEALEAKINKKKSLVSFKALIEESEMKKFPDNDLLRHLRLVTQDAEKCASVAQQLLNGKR
Experiment: KDM5B inhibition assay, MALDI-TOF-MS (IC50)
Format: biochemical
Settings: for IC50: 3 μM 2OG, 5 μM H3K4me2(1–21)

SMILES: O=C(O)CC(C(=O)O)C(O)C(=O)O (stereo not drawn) [Isocitrate]
- IC50 (0.6 μM KDM5B, 10 μM Fe(II), 500 μM L-ascorbate, pH 7.5, errors 95% confidence intervals): Inactive
- IC50 (read-out: IC50): > 1 mM
- inhibition at 1000 µM (read-out: inhibition at 1 mM): 10%

Where two headings read alike, the source gives them in different places.
